Screens from PubChem.
Shown are actives, neighbours in structure and some others; about 13% of the full set was active somewhere.
miR-21 reporter = miR-21 reporter, rising signal; HeLa miR-21 FLuc reporter, luciferase, 48 h; Potency, µM (titrated, usually from 38.3 µM), for the others: at the top dose reporter change, positive = more light; 340,000 tested, under 10 active; AID 2288; active = well fitted rising curve with a large enough effect; inconclusive = small, poorly fitted or top-dose-only effect; inactive = no such curve, though single readings can be large or run the other way;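 also: % of control where 0% means no effect; miR-21 action dims this reporter so a rising signal means less miR-21 action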
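HeLa miR-21-FLuc reporter line, endogenous miR-21; 2000 cells/well in DMEM/10% FBS; compound titration up to ~40uM final, 48 h, 37 degree Celsius; luciferase detection reagent, 15 min lysis, CCD luminescence.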
LMNA splice mod = modulators of lamin A splicing; HeLa LMNA splicing GFP/RFP minigene ratio, 48 h; Potency, µM (series often up to 46.1 µM), inactives show at the top dose ratio change, negative = inhibition, hits mostly inhibitors; hit rate 0.01% among 200,000; active = well fitted inhibition curve with a large enough effect in the signal ratio, with a control signal flat, not every such curve was filed as active; inconclusive = small, poorly fitted or top-dose-only effect, or effect the other way, or a change in a side signal; the % refers to the signal ratio; note: potency is the fitted concentration of half-maximal effect; % is set by controls: 0 for no effect and ±100 for the full control effect
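S3 HeLa cells stably expressing lamin A-EGFP splicing minigene plus DsRed2, 600 cells/well, 48 h compound exposure at 37C. Laser-scanning cytometry; analysed as GFP (500-530 nm)/RFP (575-640 nm) total intensity ratio; 0.5% DMSO vehicle.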
Sfp PPTase inh = blocks B. subtilis Sfp PPTase activity | hit rate 3.5% among 310,000 | Potency, µM, for inactives: max response, negative = inhibition, hits mostly inhibitors | Biochemical Sfp PPTase activity, qHTS | Q9F4F7; active = well fitted inhibition curve with a large enough effect; inconclusive = small, poorly fitted or top-dose-only effect, or another doubt; inactive = no such curve, though single readings can be large or run the other way;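 also: the enzyme is Sfp with the accession as filed and its product quenches rhodamine fluorescence; potency is read from the fitted curve at half-maximal effect; 0% = enzyme reaction without inhibitor and -100% = no enzyme wells; top concentration of the series not given in the record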
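Buffer: 50 mM Hepes-Na pH 7.6, 10 mM MgCl2, 0.01% Nonidet P-40, 0.01% BSA. Enzyme 15 nM, pre-exposed to compound 15 min; substrates then added and fluorescence change tracked over 30 min.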
KDM4E inh = JMJD2E (human) inhibition; JMJD2E catalytic domain, FDH-coupled NADH fluorescence (FDH is formaldehyde dehydrogenase); Potency, µM (highest dose often 57.1 µM), inactives show at the highest dose activity change, negative = inhibition, actives largely listed as inhibitors; hit rate 1.6% among 230,000; AID 2147; active = well fitted inhibition curve with a large enough effect, not every such curve was filed as active; inconclusive = small, poorly fitted or top-dose-only effect, or another doubt; inactive = no such curve, though single readings can be large or run the other way;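 note: potency is the fitted concentration of half-maximal effect; 0% = wells with enzyme and -100% = buffer wells without enzyme; nearly all actives have a fitted effect of over 50% in size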
ALDH1A1 inh = inhibitors of human aldehyde dehydrogenase 1A1; Purified ALDH1A1, NADH fluorescence, propionaldehyde substrate; Potency, µM (titrated, usually from 75.3 µM), for inactives: at the top dose activity, negative = inhibition, usual class: inhibitors; P00352; hit rate 7.3% among 220,000; active = well fitted inhibition curve with a large enough effect, not every such curve was filed as active; inconclusive = small, poorly fitted or top-dose-only effect, or another doubt; inactive = no such curve, though single readings can be large or run the other way;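 note: potency is the fitted concentration of half-maximal effect; plate controls were no enzyme wells and a reference inhibitor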
G9a inh = blocks human histone lysine methyltransferase G9a. AID 504332. Potency, µM (highest dose often 102 µM), inactives show at the top dose activity, negative = inhibition, hits mostly inhibitors. G9a H3K9 monomethylation, AlphaScreen, 2 h. hit rate 8.8% among 350,000; note: potency is the fitted concentration of half-maximal effect; % is set by controls: 0 for no effect and ±100 for the full control effect; nearly all actives have a fitted effect of over 75% in size
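Compounds were preincubated with 20 nM G9a for 15 min, after which biotinylated H3K9 peptide (500 nM) and SAM (20 uM) started a 2 h room-temperature reaction. Monomethylated product was quantified by antibody-based AlphaScreen chemiluminescence.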
* = called active by the depositor; ? = inconclusive; / = no result; ! = repeats disagree; [ ] = dose if it differs, or a comment. Unless noted, calls come from the whole dose curve; as a rule, active = well fitted curve in the direction sought with a large enough effect; inconclusive = small, poorly fitted or top-dose-only effect, or another doubt; inactive = no such curve, though single readings can be large; an effect the other way counts as inactive or inconclusive.

1: CCN(CC)CCOC(=O)C(O)(c1ccccc1)c1ccccc1
2: CC(C)N1C(=O)CC2(CC[N+](C)(CCOC(=O)C(O)(c3ccccc3)c3ccccc3)CC2)C1=O (stereo unspecified)
3: Cc1onc(-c2ccccc2)c1C(=O)NC1C(=O)N2C(C(=O)O)C(C)(C)S[C@@H]12 (stereo partly specified)
4: Cc1cccc(-n2c(O)c(/C=N/NC(=O)c3ccncc3)c(=O)[nH]c2=O)c1
5: COc1ccc(N/N=C/c2c(O)n(-c3ccc(C)c(C)c3)c(=O)[nH]c2=O)cc1
6: COc1ccc(N/N=C/c2c(O)n(-c3cccc(C)c3)c(=O)[nH]c2=O)cc1
7: COc1cccc(-n2c(O)c(C=NCCN3CCOCC3)c(=O)[nH]c2=O)c1
8: Cc1ccc(-n2c(O)c(/C=N/Nc3ccccc3)c(=O)[nH]c2=O)cc1C
screen / no.	1	2	3	4	5	6	7	8
miR-21 reporter	-11%	-4%	/	2%	3%	-8%	4%	8%
LMNA splice mod	4%	12%	/	/	?	14%[46 µM]	5%	?
Sfp PPTase inh	-2%	11%	-2%	-1%	-25%	-27%	10%	-8%
KDM4E inh	4%	?	-4%	?	?	-26%	4%	?
ALDH1A1 inh	-3%	?	-11%	/	1.6µM*	3.2µM*	10%	1%
G9a inh	28%[59 µM]	40µM*	4%[2.33 µM]	37%[12.7 µM]	1µM*	2.2µM*	45µM*	7.9µM*

Taken from above.
compound 8 in ALDH1A1 inh is listed with 1%
compound 3 in ALDH1A1 inh is listed with -11%
compound 7 in LMNA splice mod is listed with 5%

More compounds:
9: COc1ccc(N=Cc2c(O)n(-c3ccc(C)cc3)c(=O)[nH]c2=O)cc1
10: Clc1ccc(C(c2ccc(Cl)cc2)C(Cl)Cl)cc1
11: CC(Cc1ccc(C(C)(C)C)cc1)CN1CCCCC1 (stereo unspecified)
12: Cc1cc(C(=O)OCC(=O)NC(=O)c2cccn2C)c2ccccc2n1
13: FC(F)(F)c1ccc2c(c1)ncn2C1CCN(Cc2nnnn2C2CCCCC2)CC1
14: C[C@H]1CC[C@@]2(NC1)O[C@@H]1C[C@H]3[C@@H]4CC[C@@H]5C[C@@H](O)CC[C@@]5(C)[C@@H]4CC[C@]3(C)[C@@H]1[C@@H]2C
15: C/C(=N\Nc1ccccc1)c1c(O)n(Cc2ccccc2)c(=O)[nH]c1=O
16: C/C(=N\Nc1ccccc1)c1c(O)n(-c2ccccc2)c(=O)[nH]c1=O
screen / no.	9	10	11	12	13	14	15	16
miR-21 reporter	0%	/	/	-2%	-4%	/	9%	10%
LMNA splice mod	-5%[46 µM]	/	/	/	?	?	-13%	/
Sfp PPTase inh	1%	/	4%	-6%	1%	17%	-5%	-4%
KDM4E inh	?	/	/	0%	9%	2%[25.5 µM]	-5%	5%
ALDH1A1 inh	?	1%	/	?	0.56µM*	?	-2%	?
G9a inh	9%	/	/	?	-2%[59 µM]	4%[21.5 µM]	10µM*	50µM*

17: NNc1nncn1N
18: COc1ccc(-c2cc(C(F)(F)F)n3nc(C(=O)N4CCC5(CC4)OCCO5)cc3n2)cc1OC
19: COc1cccc([C@@]2(O)CCCCC2CN(C)C)c1 (stereo partly specified)
20: CC(=O)[O-].CC(=O)[O-].O.O.O.[Pb+2]
21: CC(=O)C(C)=O
22: Cc1cccc(C)c1OCc1n[nH]c(=S)n1N
23: Nn1c(COc2ccc(Cl)cc2)n[nH]c1=S
24: O=C(N1CCOCC1)C1(c2ccccc2)CCNCC1
screen / no.	17	18	19	20	21	22	23	24
miR-21 reporter	/	-9%	/	/	/	2%	-1%	/
LMNA splice mod	/	6%	/	/	-13%	?	/	/
Sfp PPTase inh	/	0%	17%	/	/	50µM*	35µM*	/
KDM4E inh	/	?	/	/	6%	-16%	?	/
ALDH1A1 inh	-8%[13.5 µM]	10µM*	/	15µM*	-4%	25µM*	25µM*	12%[13.5 µM]
G9a inh	/	32%[59 µM]	/	/	-8%[59 µM]	1.8µM*	1.8µM*	/

Single records (already shown). Order of values: miR-21 reporter, LMNA splice mod, Sfp PPTase inh, KDM4E inh, ALDH1A1 inh, G9a inh
NNc1nncn1N across the screens: /, /, /, /, -8%[13.5 µM], /
Cc1cccc(C)c1OCc1n[nH]c(=S)n1N across the screens: 2%, ?, 50µM*, -16%, 25µM*, 1.8µM*
Nn1c(COc2ccc(Cl)cc2)n[nH]c1=S across the screens: -1%, /, 35µM*, ?, 25µM*, 1.8µM*

The results go on.
25: CCC(=Nc1ccc(Cc2ccncc2)cc1)c1c(O)n(C)c(=O)n(C)c1=O
26: Cc1cnn(-c2cc(Oc3ccccc3)ncn2)c1
27: O=C1CCCN1C(=O)c1cncc(Br)c1
28: Nc1cncc(C(=O)O)c1
29: O=c1c2ccccc2[se]n1-c1ccccc1
screen / no.	25	26	27	28	29
miR-21 reporter	-5%	-61%	1%	2%	?
LMNA splice mod	?	-1%	18%	?	?
Sfp PPTase inh	5%	-16%	11%	79µM*!	0.79µM*
KDM4E inh	-10%	-1%	2%	?	0.4µM*
ALDH1A1 inh	10%	22µM*	5%	?	0.22µM*
G9a inh	79µM*	-49%	-4%	-22%	1.4µM*!
